The experiment deals with Histone-lysine N-methyltransferase EZH2 (Homo sapiens, UniProt Q15910). Put plainly: Inhibition of EZH2 (unknown origin).

Sequences of proteins named here, by UniProt entry; tags and fusion partners are left off.
UniProt Q15910, whole entry: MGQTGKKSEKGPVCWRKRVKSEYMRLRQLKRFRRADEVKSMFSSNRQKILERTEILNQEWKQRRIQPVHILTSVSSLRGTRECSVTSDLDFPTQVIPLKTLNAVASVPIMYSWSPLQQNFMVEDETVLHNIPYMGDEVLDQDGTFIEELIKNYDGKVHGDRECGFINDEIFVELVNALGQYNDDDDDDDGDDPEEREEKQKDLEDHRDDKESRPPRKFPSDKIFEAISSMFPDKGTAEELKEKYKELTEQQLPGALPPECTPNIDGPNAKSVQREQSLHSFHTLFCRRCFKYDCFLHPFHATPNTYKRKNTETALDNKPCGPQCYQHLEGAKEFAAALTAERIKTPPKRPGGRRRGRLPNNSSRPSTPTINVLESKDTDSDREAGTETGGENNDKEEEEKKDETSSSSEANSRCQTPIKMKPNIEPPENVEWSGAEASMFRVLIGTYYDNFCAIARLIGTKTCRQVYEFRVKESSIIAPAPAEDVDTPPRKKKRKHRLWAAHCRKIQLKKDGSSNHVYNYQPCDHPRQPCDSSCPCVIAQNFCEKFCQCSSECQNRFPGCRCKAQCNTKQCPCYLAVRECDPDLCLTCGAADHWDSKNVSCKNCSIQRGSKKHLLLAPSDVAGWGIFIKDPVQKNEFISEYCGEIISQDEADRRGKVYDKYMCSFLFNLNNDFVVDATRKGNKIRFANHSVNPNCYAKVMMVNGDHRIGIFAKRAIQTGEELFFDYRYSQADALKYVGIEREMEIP

With `CCCc1cc(C)[nH]c(=O)c1CNC(=O)c1cc(-c2ccnc(N3CCN(C)CC3)c2)cc2c1cnn2C(C)C`, the IC50 amounted to 1.2 nM.
